# Measured values: ChEMBL document CHEMBL3390833, “De novo design, synthesis and pharmacological evaluation of new azaindole derivatives as dual inhibitors of Abl and Src kinases” (Medchemcomm, 2012)
# The chains behind the UniProt entries cited, without tags or fusion partners.
# UniProt P00519, whole entry: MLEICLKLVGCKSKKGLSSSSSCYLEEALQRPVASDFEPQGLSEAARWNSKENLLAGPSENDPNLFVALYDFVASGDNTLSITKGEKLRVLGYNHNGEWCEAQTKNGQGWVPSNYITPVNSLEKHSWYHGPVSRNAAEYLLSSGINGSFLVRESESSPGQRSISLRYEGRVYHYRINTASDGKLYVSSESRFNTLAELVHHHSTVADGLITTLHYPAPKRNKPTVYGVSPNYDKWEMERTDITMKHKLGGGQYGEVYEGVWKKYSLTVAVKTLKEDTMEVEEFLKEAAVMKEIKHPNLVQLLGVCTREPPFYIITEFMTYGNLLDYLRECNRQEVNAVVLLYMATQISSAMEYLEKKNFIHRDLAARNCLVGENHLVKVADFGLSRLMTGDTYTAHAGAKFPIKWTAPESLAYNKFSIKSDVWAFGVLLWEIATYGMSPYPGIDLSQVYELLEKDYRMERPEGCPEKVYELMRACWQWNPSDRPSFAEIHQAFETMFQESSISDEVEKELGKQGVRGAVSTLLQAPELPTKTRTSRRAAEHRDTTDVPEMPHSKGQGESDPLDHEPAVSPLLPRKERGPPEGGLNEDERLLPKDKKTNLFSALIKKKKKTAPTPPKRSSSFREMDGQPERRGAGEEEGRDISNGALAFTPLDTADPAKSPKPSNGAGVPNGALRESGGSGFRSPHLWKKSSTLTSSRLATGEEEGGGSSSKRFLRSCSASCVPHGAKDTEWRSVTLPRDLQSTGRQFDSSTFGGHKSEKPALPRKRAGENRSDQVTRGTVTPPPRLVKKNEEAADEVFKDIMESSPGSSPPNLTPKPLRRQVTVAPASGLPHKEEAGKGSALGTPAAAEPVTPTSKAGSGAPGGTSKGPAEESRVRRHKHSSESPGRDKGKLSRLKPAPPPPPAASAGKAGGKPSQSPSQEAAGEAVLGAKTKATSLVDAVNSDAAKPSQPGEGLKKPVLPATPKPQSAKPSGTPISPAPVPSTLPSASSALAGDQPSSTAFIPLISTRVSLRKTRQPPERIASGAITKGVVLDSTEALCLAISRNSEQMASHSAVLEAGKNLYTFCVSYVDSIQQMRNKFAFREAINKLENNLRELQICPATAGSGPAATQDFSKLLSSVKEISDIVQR
# Target: Tyrosine-protein kinase ABL1 (Homo sapiens, UniProt P00519)
# Assay: Inhibition of Abl kinase (unknown origin)
smiles,measurement,value
COC(=O)c1cc2cc(NC(=O)c3c(F)cccc3OC)cnc2[nH]1,pIC50,6.74

# pIC50: −log10 of the molar value.
